Earlier results in patent publication US8828988B2 (Tetraphase Pharmaceuticals, Inc., priority 2009, dated 2014).

Settings: stated for comparison; cited from earlier work

## CN(C)[C@@H]1C(O)=C(C(N)=O)C(=O)[C@@]2(O)C(O)=C3C(=O)c4c(O)cccc4[C@@](C)(O)[C@H]3C[C@@H]12 [Tetracycline, tetracycline, reference compound]
  oral bioavailability in rats: 12.1%
